The target in this experiment is T1, CshA-SpyTag.
T1 construct: Fusion of CshA (Streptococcus gordonii) portion and SpyTag
T1 chain: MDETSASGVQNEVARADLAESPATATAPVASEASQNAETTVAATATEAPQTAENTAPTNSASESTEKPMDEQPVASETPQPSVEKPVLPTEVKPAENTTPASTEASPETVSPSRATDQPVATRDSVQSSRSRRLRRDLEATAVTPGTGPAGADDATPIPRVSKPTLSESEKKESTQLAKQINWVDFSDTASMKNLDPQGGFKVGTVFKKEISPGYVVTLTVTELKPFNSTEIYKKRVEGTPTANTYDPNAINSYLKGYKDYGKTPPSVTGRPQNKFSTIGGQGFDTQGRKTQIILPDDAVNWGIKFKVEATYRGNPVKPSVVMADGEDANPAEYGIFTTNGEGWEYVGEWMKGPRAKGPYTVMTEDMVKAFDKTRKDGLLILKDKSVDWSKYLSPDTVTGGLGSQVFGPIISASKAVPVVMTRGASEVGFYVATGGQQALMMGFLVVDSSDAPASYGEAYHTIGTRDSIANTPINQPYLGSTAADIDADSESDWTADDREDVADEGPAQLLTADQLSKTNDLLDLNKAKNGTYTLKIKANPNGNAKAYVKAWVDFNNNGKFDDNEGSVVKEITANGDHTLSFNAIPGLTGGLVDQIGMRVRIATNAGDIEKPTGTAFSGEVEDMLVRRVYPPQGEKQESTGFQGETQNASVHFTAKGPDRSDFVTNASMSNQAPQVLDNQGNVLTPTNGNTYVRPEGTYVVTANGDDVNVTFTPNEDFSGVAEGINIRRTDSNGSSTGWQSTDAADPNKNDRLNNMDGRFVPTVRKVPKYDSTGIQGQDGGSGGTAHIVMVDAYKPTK
Put plainly: SDS-PAGE of solution coupling reaction (covalent isopeptide bond).

B1: scGFP-SpyCatcher (other)
chain: ASKGERLFRGKVPILVELKGDVNGHKFSVRGKGKGDATRGKLTLKFICTTGKLPVPWPTLVTTLTYGVQCFSRYPKHMKRHDFFKSAMPKGYVQERTISFKKDGKYKTRAEVKFEGRTLVNRIKLKGRDFKEKGNILGHKLRYNFNSHKVYITADKRKNGIKAKFKIRHNVKDGSVQLADHYQQNTPIGRGPVLLPRNHYLSTRSKLSKDPKEKRDHMVLLEFVTAAGIKHGRDERYKGGSGGTGGSGGTGGSGGTGGAMVDTLSGLSSEQGQSGDMTIEEDSATHIKFSKRDEDGKELAGATMELRDSSGKTISTWISDGQVKDFYLYPGKYTFVETAAPDGYEVATAITFTVNEQGQVTVNGKATKGDAHI
As to B1, the binding result is “binds”.

B2: [scGFP-SpyCatcher][S] (other)
chain: ASKGERLFRGKVPILVELKGDVNGHKFSVRGKGKGDATRGKLTLKFICTTGKLPVPWPTLVTTLTYGVQCFSRYPKHMKRHDFFKSAMPKGYVQERTISFKKDGKYKTRAEVKFEGRTLVNRIKLKGRDFKEKGNILGHKLRYNFNSHKVYITADKRKNGIKAKFKIRHNVKDGSVQLADHYQQNTPIGRGPVLLPRNHYLSTRSKLSKDPKEKRDHMVLLEFVTAAGIKHGRDERYKGGSGGTGGSGGTGGSGGTGGAMVDTLSGLSSEQGQSGDMTIEEDSATHIKFSKRDEDGKELAGATMELRDSSGKTISTWISDGQVKDFYLYPGKYTFVETAAPDGYEVATAITFTVNEQGQVTVNGKATKGDAHI
modifications: Non-covalent corona of glycolic acid ethoxylate 4-nonylphenyl ether surfactant, electrostatically complexed to cationic residues (mainly on scGFP). The letters do not carry it.
notes: Protein-polymer surfactant conjugate of scGFP-SpyCatcher; same polypeptide as m1 with a non-covalent surfactant corona; also called scGFP-SpyCatcher surfactant conjugate
With B2, the binding result was “binds”.

The values above are taken from patent publication US20210060174A1 (CYTOSEEK, published 2021).
